Experimental data taken from PubChem BioAssay AID1048 (The Scripps Research Institute Molecular Screening Center, 2008).
This is a selection; strong and weak results do not stand in their true shares. Some tests of the compounds listed are not included; inactive here does not mean inactive elsewhere. The source made the active and inactive calls. Rule as the data show it: active = TR-FRET ratio above about 2000; inactive = the rest.

Experiment: signal artefacts in PPARgamma/SRC-3 readout – biochemical, TR-FRET ratio, artefact control for PPARgamma SRC-3 recruitment agonists (AID 1048)
Conditions: TR-FRET artefact counter-screen, PPARgamma/SRC-3 format; at 8 µM; active compounds read high
In the case of COc1cccc(C(=O)NCC2(N3CCCCC3)CCCCC2)c1, the TR-FRET ratio is reported as inactive: 1480.
For O=C(NCC1(N2CCCCC2)CCCCC1)c1cc([N+](=O)[O-])ccc1Cl, the TR-FRET ratio was inactive: 1510.
With CN(C)C1CCCC1OC(=O)C(O)(c1ccccc1)c1ccccc1 (stereo unspecified) the TR-FRET ratio was inactive: 1550.
With Cc1ccccc1C(=O)NCC1(N2CCCCC2)CCCCC1 the TR-FRET ratio was inactive: 1580.
For C=CCN1CCN(CCOC(=O)C(O)(c2ccccc2)c2ccccc2)CC1, the TR-FRET ratio was inactive: 1740.
For CCN1CCCC(OC(=O)C2(O)c3ccccc3C=Cc3ccccc32)C1 (stereo unspecified), the TR-FRET ratio was inactive: 1670.
